We go through four compounds from PubChem BioAssay AID1346428 (National Center for Advancing Translational Sciences (NCATS), 2018).

The chains behind the UniProt entries cited, without tags or fusion partners.
UniProt O75388, whole entry: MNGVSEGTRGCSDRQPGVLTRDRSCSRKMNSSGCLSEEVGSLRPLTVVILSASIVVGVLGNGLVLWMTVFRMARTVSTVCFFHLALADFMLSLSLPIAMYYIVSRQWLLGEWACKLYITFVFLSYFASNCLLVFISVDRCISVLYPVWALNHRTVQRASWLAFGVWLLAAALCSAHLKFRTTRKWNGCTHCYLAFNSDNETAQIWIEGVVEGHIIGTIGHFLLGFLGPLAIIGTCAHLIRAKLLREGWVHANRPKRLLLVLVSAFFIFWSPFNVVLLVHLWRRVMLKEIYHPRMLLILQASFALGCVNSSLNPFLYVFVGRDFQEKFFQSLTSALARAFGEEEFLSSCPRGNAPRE

The list shows a part of the results, in another mix than the full data. Calls of active or inactive are those of the source.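 Rule for the calls: active = activation of at least 60% and not above a set upper limit (about 1 call in 100 departs from these limits); inconclusive = activation of 40% to 60%, or above that upper limit; inactive = activation under 40%.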

For this experiment, the target named is Probable G-protein coupled receptor 32 (Homo sapiens) (UniProt O75388). As to the kind of experiment: qHTS for Agonists of Human Resolvin D1 Receptor DRV1. Note: 0% is about no effect. Conditions: CHO-K1 GPR32 beta-arrestin PathHunter luminescence, 90 min; at 76.9 µM; active compounds read high; zero percent set by DMSO-only wells.
Regarding `C/C1=C2N=C(/C=C3N=C(/C(C)=C4\[N-][C@@](C)([C@@H]5N=C1[C@](C)(CCC(=O)NC[C@@H](C)OP(=O)([O-])O[C@H]1[C@@H](O)[C@@H](n6cnc7cc(C)c(C)cc76)O[C@@H]1CO)[C@H]5CC(N)=O)[C@@](C)(CC(N)=O)[C@@H]4CCC(N)=O)[C@@](C)(CC(N)=O)[C@@H]\3CCC(N)=O)C(C)(C)[C@@H]/2CCC(N)=O.[C-]#N.[Co+3]`, the activation was inactive: -20.9%.
The same measure for `CCOP(=O)(CC)Oc1ccc([N+](=O)[O-])cc1` (centres undefined): inactive: -12.2%; for `OCCSCCO`: inactive: -0.666%.
As to `O=[N+]([O-])c1cccc([N+](=O)[O-])c1`, the activation was inactive: 13.8%.
